Results as given in BindingDB's records for doi:10.1016/s0014-2999(96)00840-0 (Hoechst Marion Roussel, 1996).

Chains of the proteins cited; added tags and fusions are not shown.
UniProt P14842, whole entry: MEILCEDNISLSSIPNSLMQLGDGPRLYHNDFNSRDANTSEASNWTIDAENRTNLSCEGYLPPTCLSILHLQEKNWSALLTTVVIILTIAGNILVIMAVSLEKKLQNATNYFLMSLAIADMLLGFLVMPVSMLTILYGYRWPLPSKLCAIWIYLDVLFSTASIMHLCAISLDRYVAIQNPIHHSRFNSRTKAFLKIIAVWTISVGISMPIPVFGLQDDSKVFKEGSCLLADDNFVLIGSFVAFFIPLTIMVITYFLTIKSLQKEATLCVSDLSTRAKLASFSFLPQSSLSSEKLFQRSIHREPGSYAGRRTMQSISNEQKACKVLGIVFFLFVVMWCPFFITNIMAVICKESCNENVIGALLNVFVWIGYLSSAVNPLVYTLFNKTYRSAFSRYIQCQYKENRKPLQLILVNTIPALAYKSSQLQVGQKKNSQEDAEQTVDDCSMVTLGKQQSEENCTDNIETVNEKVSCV
UniProt P18901, whole entry: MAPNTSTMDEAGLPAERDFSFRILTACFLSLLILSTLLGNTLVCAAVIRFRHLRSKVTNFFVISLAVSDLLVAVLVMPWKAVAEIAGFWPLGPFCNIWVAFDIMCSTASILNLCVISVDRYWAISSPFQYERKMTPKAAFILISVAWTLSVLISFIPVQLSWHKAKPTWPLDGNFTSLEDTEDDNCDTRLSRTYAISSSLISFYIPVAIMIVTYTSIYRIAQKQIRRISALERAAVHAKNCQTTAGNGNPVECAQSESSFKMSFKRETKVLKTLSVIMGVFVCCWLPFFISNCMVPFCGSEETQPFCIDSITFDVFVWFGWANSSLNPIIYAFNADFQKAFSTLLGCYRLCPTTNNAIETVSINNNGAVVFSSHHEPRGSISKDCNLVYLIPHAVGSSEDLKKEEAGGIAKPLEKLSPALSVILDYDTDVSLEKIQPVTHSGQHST

Assays:
[1] = molecular target: 5-hydroxytryptamine receptor 2A (Rattus norvegicus, UniProt P14842)
D(1A) dopamine receptor = D(1A) dopamine receptor (Rattus norvegicus, UniProt P18901)

Row | SMILES | Ki [1] | Ki (D(1A) dopamine receptor)
1 | Cc1cc2c(s1)=Nc1ccccc1NC=2N1CCN(C)CC1 [CAS_132539-06-1] | 13.3 nM | –
2 | Cc1nc2n(c(=O)c1CCN1CCC(c3noc4cc(F)ccc34)CC1)CCCC2 [3-{2-[4-(6-Fluoro-benzo[d]isoxazol-3-yl)-piperidin-1-yl]-ethyl}-2-methyl-6,7,8,9-tetrahydro-pyrido[1,2-a]pyrimidin-4-one(risperidone)] | – | 550 nM
